One data set deals with CCRF - CEM. Put plainly: In vitro activity against AIDS related Lymphoma (ARL) cell lines (NCI protocol). It is filed as cell-based. Particulars: Homo sapiens, ARL cell line.
Another data set deals with RL. The data set is described as above. Type of data set: cell-based. Particulars: Homo sapiens, ARL cell line.
The test system of data set [1] is NCI's 60 human tumor cell line assay. Put plainly: cells. Type of data set: cell-based. The settings on record: 60 cell, 48 h, read-out: IC50 (mean GI50 against NCI's 60 human tumor cell line assay).
The next data set has as its system SU-DHL-7. Kind of data set: In vitro activity against AIDS related Lymphoma (ARL) cell lines (NCI protocol). It is filed as cell-based. Particulars: Homo sapiens, SU-DHL-7, ARL cell line.
The next data set has as its target Human Serum Albumin (Homo sapiens, UniProt P02768). Particulars: in the presence of HSA at 37°C, compared with 20 (S) camptothecin and 9-aminocamptothecin; cited from earlier work.

Amino acid sequences for entries named in this document (tags omitted). Residues count along the entry.
UniProt P02768, 25-609: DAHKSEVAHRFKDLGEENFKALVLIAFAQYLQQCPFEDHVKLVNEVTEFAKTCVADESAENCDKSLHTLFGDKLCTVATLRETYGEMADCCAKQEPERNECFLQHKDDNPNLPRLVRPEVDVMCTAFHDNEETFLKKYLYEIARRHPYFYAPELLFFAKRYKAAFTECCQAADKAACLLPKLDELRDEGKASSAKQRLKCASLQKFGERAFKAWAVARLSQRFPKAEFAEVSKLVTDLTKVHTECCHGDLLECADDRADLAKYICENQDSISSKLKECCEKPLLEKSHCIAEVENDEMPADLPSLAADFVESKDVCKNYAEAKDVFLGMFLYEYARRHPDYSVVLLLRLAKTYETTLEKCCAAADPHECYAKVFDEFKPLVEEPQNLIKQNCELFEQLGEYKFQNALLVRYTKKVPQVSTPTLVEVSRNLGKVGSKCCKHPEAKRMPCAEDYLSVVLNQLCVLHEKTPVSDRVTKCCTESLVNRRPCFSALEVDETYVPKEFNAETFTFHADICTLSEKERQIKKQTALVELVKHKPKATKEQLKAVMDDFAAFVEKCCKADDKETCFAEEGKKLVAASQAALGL

Regarding `CCc1c2c(nc3ccccc13)-c1cc3c(c(=O)n1C2OCCO)COC(=O)[C@]3(O)CC` (some centres unmarked) [Example 32, 5-(2'-Hydroxyethoxy)-7-ethylcamptothecin], the values for the IC (TGI) in the data set with CCRF - CEM (48 h), with RL (48 h) and with SU-DHL-7 (48 h) were 1.83 µM, 3.94 µM and 3.51 µM, respectively. Further, the GI50 (usually the concentration that inhibits growth by half) in the data set with CCRF - CEM stood at 0.318 µM; in the data set with RL, 0.463 µM; with SU-DHL-7, 0.609 µM. Besides, the mean GI50 in data set [1] was found to be 4.78 µM.

Consider `CCc1c2c(nc3ccc(O)cc13)-c1cc3c(c(=O)n1C2)COC(=O)[C@]3(O)CC` [SN-38, 7-ethyl-10-hydroxycamptothecin], for which the “percentage (%) of lactone form at equilibrium” value on Human Serum Albumin is listed as “higher percentage (%) of lactone form at equilibrium”.

These data come from patent EP0847397B1, “WATER-SOLUBLE C-RING ANALOGUES OF 20 (S)-CAMPTOTHECIN” (DR. REDDY'S RESEARCH FOUNDATION, priority 1996, dated 1997).
